Earlier results in US20250170153A1, “METHODS FOR THE TREATMENT OF ANXIETY DISORDER” (ANANDA SCIENTIFIC, INC., priority 2022, published 2025).

Details: doses 10 mg to 6000 mg, single and multiple doses; cited from earlier work

C=C(C)[C@@H]1CCC(C)=C[C@H]1c1c(O)cc(CCCCC)cc1O [CBD, 2-(1R,6R)-3-methyl-6-prop-1-en-2-ylcyclohex-2-en-1-yl-5-pentylbenzene-1,3-diol]
Safety for use: safe
